Values quoted from earlier work, collected in patent US7037910B2, “Azabicyclic heterocycles as cannabinoid receptor modulators” (Bristol-Myers Squibb, priority 2003, dated 2006).

Conditions: chronic administration for two weeks

Cc1c(C(=O)NN2CCCCC2)nn(-c2ccc(Cl)cc2Cl)c1-c1ccc(I)cc1 [AM-251]
adipose tissue mass: decreased adipose tissue mass
